Results as given in US20090098130A1, “GLUCAGON-LIKE PROTEIN-1 RECEPTOR (GLP-1R) AGONIST COMPOUNDS” (priority 2007, published 2009).

System: pancreatic β cells
Test: glucose-stimulated insulin secretion (GSIS) assay
Format: cell-based
Details: GA targeting agent-linker conjugate; GSIS assay in vitro
Protocol: Briefly, glucose and GA targeting peptide was added at various concentrations to pancreatic β cell cultures, and insulin secretion was detected by measuring insulin levels over time. EC50 was calculated for each peptide.
The ability of these GA targeting agent-linker conjugates to stimulate […] secretion in vitro was measured using the GSIS assay described in Example 27. […] Each of these peptides contained a side-chain modified Lys residue according to the scheme illustrated in FIG. 30 at a different position.

For `CC[C@H](C)[C@H](NC(=O)[C@H](Cc1ccccc1)NC(=O)[C@H](CCC(=O)O)NC(=O)[C@H](CCCCN)NC(=O)[C@@H](NC(=O)[C@H](C)NC(=O)[C@H](CCC(N)=O)NC(=O)[C@H](CCC(=O)O)NC(=O)[C@H](CCC(=O)O)NC(=O)[C@H](CC(C)C)NC(=O)[C@H](Cc1ccc(O)cc1)NC(=O)[C@H](CO)NC(=O)[C@H](CO)NC(=O)[C@@H](NC(=O)[C@H](CC(=O)O)NC(=O)[C@H](CO)NC(=O)[C@@H](NC(=O)[C@H](Cc1ccccc1)NC(=O)[C@@H](NC(=O)CNC(=O)[C@H](CCC(=O)O)NC(=O)C(C)(C)NC(=O)[C@@H](N)Cc1c[nH]cn1)[C@@H](C)O)[C@@H](C)O)C(C)C)C(C)C)C(=O)N[C@@H](C)C(=O)N[C@@H](Cc1c[nH]c2ccccc12)C(=O)N[C@@H](CC(C)C)C(=O)N[C@H](C(=O)N[C@@H](CCCCNC(=O)c1ccccc1)C(=O)NC(C)(C)C(=O)N[C@@H](CCCNC(=N)N)C(N)=O)[C@@H](C)CC`, the EC50 was < 10 µM.
